15 compounds from PubChem BioAssay AID1051 (The Scripps Research Institute Molecular Screening Center, 2008) can be followed below.

The list shows a part of the results, in another mix than the full data. Activity calls are given as the source filed them. No stated cut-off is given here; in the data, active means TR-FRET ratio above about 2300; inactive means the rest.

The test is described as follows: TR-FRET detection interference compounds, primary screen, artefact control for PPARgamma SRC-1 recruitment agonists, biochemical, TR-FRET emission ratio (AID 1051). To be noted: TR-FRET detection artefact counter-screen, at 8 µM, active compounds read high.
Turning to `COc1ccc(C(=O)NCC2(N3CCCCC3)CCCCC2)c(OC)c1OC`, the TR-FRET ratio was inactive: 1940.

For `CCOC(=O)N1CCC(Nc2ccc(OC)cc2)CC1`, the TR-FRET ratio is inactive: 1740. Regarding `O=C(NCC1(N2CCCCC2)CCCCC1)c1cccc([N+](=O)[O-])c1`, the TR-FRET ratio is inactive: 2030. The same measure for `COc1ccc(NC2CCN(C(=O)OC(C)(C)C)CC2)cc1`: inactive: 1800. With `CN1CCN(CCOC(=O)C(O)(c2ccccc2)c2ccccc2)CC1` the figure was inactive: 1710. `COc1ccc(CN(CCCl)CCCl)cc1Cl`: the TR-FRET ratio was inactive: 1800. With `CN(C)c1cccc(C(=O)NCC2(N3CCCCC3)CCCCC2)c1` the figure was inactive: 1630.

On to `CC(C)c1ccc(NC2CCN(C(=O)OC(C)(C)C)CC2)cc1`, for which the TR-FRET ratio is inactive: 1860. With `COc1ccc(C(=O)NCC2(N3CCOCC3)CCCCC2)cc1OC` the figure was inactive: 1810. With `O=C(OC1CN2CCC1CC2)C1c2ccccc2C=Cc2ccccc21` (stereo not given) the figure was inactive: 1780. As to `N#Cc1ccc(C(=O)NCC2(N3CCCCC3)CCCCC2)cc1`, the TR-FRET ratio is inactive: 1500. The same measure for `CCN1CCC(Nc2cccc(F)c2)CC1`: inactive: 1920; for `CN(C)c1ccc(C(=O)NCC2(N3CCCCC3)CCCCC2)cc1`: inactive: 1730. The same measure for `CC(C)(C)OC(=O)N1CCC(Nc2ccccc2)CC1`: inactive: 1990. The same measure for `COc1cc(OC)cc(C(=O)NCC2(N3CCOCC3)CCCCC2)c1`: inactive: 1940.
